Test results from patent publication US9789082B2, “Somatostatin receptor subtype 4 (SSTR4) agonists” (Centrexion Therapeutics Corporation, priority 2013, dated 2017).

Protein sequences, listed by entry. Tags and fused reporters are not part of them.
UniProt P31391, whole entry: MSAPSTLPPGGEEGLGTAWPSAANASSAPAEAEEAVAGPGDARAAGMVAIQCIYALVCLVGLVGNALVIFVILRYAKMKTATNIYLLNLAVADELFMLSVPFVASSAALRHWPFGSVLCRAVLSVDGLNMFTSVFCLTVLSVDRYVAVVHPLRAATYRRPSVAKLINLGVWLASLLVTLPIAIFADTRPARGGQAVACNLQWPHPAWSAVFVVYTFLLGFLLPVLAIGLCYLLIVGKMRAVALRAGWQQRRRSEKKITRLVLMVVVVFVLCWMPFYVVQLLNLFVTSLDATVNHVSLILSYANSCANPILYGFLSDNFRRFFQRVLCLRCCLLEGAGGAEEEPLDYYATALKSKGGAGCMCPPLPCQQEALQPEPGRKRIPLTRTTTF

What was measured:
[1] = target: human Somatostatin 4 receptor (SSTR4) (Homo sapiens (Human), UniProt P31391); experiment: cAMP assay with human somatostatin 4 receptor (hSSTR4 expressing H4 cells); format: cell-based; details: read-out: SSTR4 agonism EC50, tested form: HCl
[2] = Metabolic stability in pooled human liver microsomes (half-life); details: 37° C., 1 μM test compound

| SMILES | pEC50 [1] | Half-life t1/2 [2] |
| --- | --- | --- |
| Cc1cc2nc(C)ccc2c(C(C)(C)NC(=O)[C@H]2[C@@H]3CNC[C@@H]32)n1 | 7.46 | – |
| Cc1cccn2c(C(C)(C)NC(=O)[C@H]3[C@@H]4CNC[C@@H]43)nc(C)c12 | – | >2.17 h |

pEC50: −log10 of the molar value.
